Consider 28 compounds from patent publication EP4831176A1, “BICYCLIC FUSED HETEROAROMATIC RING DERIVATIVE, AND PHARMACEUTICAL COMPOSITION AND USE THEREOF” (dated 2026).

By UniProt entry, the sequences of proteins in these tests, tags left out.
UniProt O75530, whole entry: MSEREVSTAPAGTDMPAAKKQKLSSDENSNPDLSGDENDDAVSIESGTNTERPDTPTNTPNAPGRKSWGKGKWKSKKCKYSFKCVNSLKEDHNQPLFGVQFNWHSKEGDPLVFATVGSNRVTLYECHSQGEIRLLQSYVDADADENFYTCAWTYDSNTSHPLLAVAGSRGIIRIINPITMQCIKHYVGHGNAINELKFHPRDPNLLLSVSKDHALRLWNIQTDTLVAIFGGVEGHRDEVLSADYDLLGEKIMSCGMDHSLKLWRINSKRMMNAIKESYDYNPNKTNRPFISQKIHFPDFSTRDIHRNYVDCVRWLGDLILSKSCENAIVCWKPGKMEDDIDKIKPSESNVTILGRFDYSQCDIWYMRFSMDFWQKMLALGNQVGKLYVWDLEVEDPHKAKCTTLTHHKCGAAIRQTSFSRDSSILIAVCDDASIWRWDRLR

The target in one assay is EED protein (Homo sapiens, UniProt O75530). Briefly: EED protein degradation in Karpas-422 cells, In-cell western (ICW). The following applies: 18 hours incubation. The source says:
In this experiment, In-cell western (ICW) method was used to quantitatively analyze the EED protein expression level in Karpas-422 cells to detect the degradation activity of the compounds on the target protein. The specific steps were as follows: • 1. Karpas-422 cells were purchased from Nanjing Cobioer (Catalog No. CBP60629), subcultured and maintained in logarithmic growth state using RPMI-1640 complete medium (containing 10% v/v fetal bovine serum) according to the supplier's recommended conditions. […] One day before cell seeding, a 384-well plate was coated with 30 µL of coating buffer (phosphate buffered saline containing 30 µg/mL poly-D-lysine) at room temperature for 2 hours. The coating solution was then discarded, and the plate was washed once with 90 µL of phosphate buffered saline, which was then discarded. The plate was allowed to air dry naturally in a clean bench, wrapped around the edges with Parafilm to prevent moisture, and stored in a 4°C refrigerator until use. • 3. Before cell seeding, cells were collected in a centrifuge tube, centrifuged at 250 rcf for 3 minutes, and the culture medium was discarded. The cells were resuspended in fresh complete medium, and 20 µL of the cell suspension was taken to calculate the cell concentration using a Countstar cell counter. After adjusting the density, cells were seeded into the prepared coated plate at 15,000 cells/45 µL and pre-incubated in a 37°C, 5% CO2 incubator for 4 hours. • 4. The negative and positive control groups were treated with 5 µL of control solution (serum-free medium containing 1% v/v DMSO). Compound gradient dilutions were prepared using the control solution, and 5 µL of the dilutions were added to the corresponding culture wells. The final concentration of DMSO in the test was 0.1% v/v. Subsequently, the plate was incubated in a 37°C, 5% CO2 incubator for 18 hours. • 5. The culture plate was removed, and cells were fixed by directly adding 10 µL of fixative solution (phosphate buffered saline containing 3% v/v glutaraldehyde) to the cells and incubating at room temperature for 30 minutes. The liquid was discarded. Subsequently, cells were treated with 30 µL of permeabilization staining solution (phosphate buffered saline containing 0.1% v/v Triton X-100 and 20 µg/mL Hoechst 33342) at room temperature for 30 minutes. The permeabilization solution was discarded, and the fluorescence value (excitation at 360 nm, emission at 460 nm) was read on a microplate reader. • 6. 50 µL of repair solution (50 mM citric acid buffer) was added to all wells, and the plate was incubated at 70°C for 2 hours on a constant temperature incubation shaker. The microplate was then removed, equilibrated to room temperature, and the liquid was discarded. • 7. A sufficient amount of antibody dilution buffer (Tris Buffered Saline-Tween solution containing 1% w/v bovine serum albumin) was prepared and stored in a 4°C refrigerator until use. • 8. Primary antibody dilution (EED antibody diluted 1:1000 with antibody dilution buffer) was prepared. 30 µL of antibody dilution buffer without antibody was added to the negative control group. 30 µL of the primary antibody dilution was added to the cells in the other groups, and the plate was incubated overnight at 4°C. • 9. The primary antibody dilution was discarded. The plate was washed 3 times with 90 µL of Tris Buffered Saline-Tween solution, and the wash solution was discarded. Secondary antibody dilution (HRP-linked antibody diluted 1:500 with antibody dilution buffer) was prepared, and 30 µL was added to the cells. The plate was incubated at room temperature for 2 hours. • 10. The secondary antibody dilution was discarded. The plate was washed 3 times with 90 µL of Tris Buffered Saline-Tween solution, and the wash solution was discarded. 30 µL of TMB substrate solution was added, and the plate was incubated at room temperature in the dark for 15 minutes. Then, 30 µL of stop solution (2 M sulfuric acid) was added to terminate the reaction. […]

The subject of a further assay is Pfeiffer cells. Briefly: Proliferation inhibition of Pfeiffer tumor cells, Cell Titer-Glo. The following applies: read-out: CTG IC50, 144 hours incubation. The source says: In this experiment, Cell Titer-Glo reagent was used to quantitatively analyze the proliferation activity of Pfeiffer cells to detect the inhibitory ability of the compounds on tumor cell proliferation. The specific steps were as follows: • 1. Pfeiffer cells were purchased from Nanjing Cobioer (purchased from ATCC, Catalog No. #CRL2632), subcultured and maintained in logarithmic growth state using RPMI-1640 complete medium (containing 10% v/v fetal bovine serum) according to the supplier's recommended conditions. […] Before cell seeding, cells were collected in a centrifuge tube, centrifuged at 250 rcf for 3 minutes, and the culture medium was discarded. The cells were resuspended in fresh complete medium, and 20 µL of the cell suspension was taken to calculate the cell concentration using a Countstar cell counter. After adjusting the density, cells were seeded into a 384-well plate at 2,000 cells/45 µL and pre-incubated in a 37°C, 5% CO2 incubator for 4 hours. • 3. The negative and positive control groups were treated with 5 µL of control solution (non-complete medium containing 1% v/v DMSO). Compound gradient dilutions were prepared using non-complete medium, and 5 µL of the dilutions were added to the corresponding culture wells. The final concentration of DMSO in the test was 0.1% v/v. Subsequently, the plate was incubated in a 37°C, 5% CO2 incubator for 144 hours. • 4. 40 µL of Cell Titer-Glo reagent was added directly to the cell culture, and the plate was incubated at room temperature in the dark for 30 minutes. The luminescence value was then read on a plate reader, and the results were used to analyze the cell proliferation ratio and compound activity. • 5. The signal value of the negative control group was set as Bottom, and the signal value of the positive control group was set as Top. The compound concentration value (logarithm) was the X-axis, and the luminescence reading at the corresponding concentration was the Y-axis, with HillSlope as the slope factor. A four-parameter logistic model (4PL logistic model) was used for fitting, and the calculation method was as follows:Y = Bottom + (Top - Bottom) / (1 + 10^((Log IC50 - X) × HillSlope))
After fitting, the IC50 value of the compound was calculated, and the proliferation inhibitory activity of the compound was compared based on the IC50 value.
For orientation: In ATP-based viability assays light output follows the ATP content of the culture.

For `Cn1nc(C2CCC(=O)NC2=O)c2ccc(N3CCC(N4CCC(n5cc(-c6cnc(NCc7c(F)ccc8c7CCO8)n7cnc(Cl)c67)cn5)CC4)CC3)cc21` (centres unmarked), the Dmax at EED protein worked out at 54%. Moreover, the IC50 with Pfeiffer cells amounted to 0.8 nM.
On EED protein, `Cn1nc(C2CCC(=O)NC2=O)c2ccc(N3CCC(CN4CCC(n5cnc(-c6cnc(NCc7c(F)ccc8c7CCO8)n7cnc(Cl)c67)c5)CC4)CC3)cc21` (centres unmarked) gave a Dmax of 29%.
As to `Cn1c(=O)n(C2CCC(=O)NC2=O)c2ccc(N3CCC(NC(=O)c4ccc(-c5cnc(NCc6c(F)ccc7c6CCO7)n6cnc(Cl)c56)cn4)CC3)cc21` (centres unmarked), on EED protein, the Dmax amounted to 36%. In addition, the IC50 in the assay on Pfeiffer cells was 29 nM.
For the compound `Cn1nc(C2CCC(=O)NC2=O)c2ccc(N3CC4(CC(CN5CCC(n6cnc(-c7cnc(NCc8c(F)ccc9c8CCO9)n8cnc(Cl)c78)n6)CC5)C4)C3)cc21` (centres unmarked), the greatest degradation seen (Dmax) on EED protein is 51%. Further, in the assay on Pfeiffer cells, the IC50 amounted to 0.17 nM.
With `Cn1nc(C2CCC(=O)NC2=O)c2ccc(N3CCC(CN4CCC(n5ccc(-c6cnc(NCc7c(F)ccc8c7CCO8)n7cnc(Cl)c67)n5)CC4)CC3)cc21` (centres unmarked), the Dmax at EED protein was 33%. In addition, in the assay on Pfeiffer cells, the IC50 was determined as 136 nM.
The compound `Cn1nc(C2CCC(=O)NC2=O)c2ccc(N3CCC(CN4CCC(c5ccc(-c6cnc(NCc7c(F)ccc8c7CCO8)n7cncc67)cc5)CC4)CC3)cc21` (centres unmarked) yielded a maximal degradation (Dmax) at EED protein of 64%. Besides, the half-maximal inhibitory concentration (IC50) with Pfeiffer cells was determined as 1.4 nM.
In turn, `Cn1nc(C2CCC(=O)NC2=O)c2ccc(N3CCC(CN4CCC(c5ncc(-c6cnc(NCc7c(F)ccc8c7CCO8)n7cnnc67)cn5)CC4)CC3)cc21` (centres unmarked) showed a maximal degradation (Dmax) at EED protein of 75%. Besides, the half-inhibitory concentration (IC50) in the assay on Pfeiffer cells was 5 nM.
Consider `Cn1nc(C2CCC(=O)NC2=O)c2ncc(N3CCC(CN4CCC(n5cc(-c6cnc(NCc7c(F)ccc8c7CCO8)n7cnc(Cl)c67)cn5)CC4)CC3)cc21` (centres unmarked), for which the Dmax at EED protein is given as 37%. Besides, in the assay with Pfeiffer cells, the half-inhibitory concentration (IC50) worked out at 5 nM.
The compound `Cn1nc(C2CCC(=O)NC2=O)c2ccc(N3CCC(CN4CCC(n5nnc(-c6cnc(NCc7c(F)ccc8c7CCO8)n7cnc(Cl)c67)n5)CC4)CC3)cc21` (centres unmarked) came in with a Dmax on EED protein of 55%. Moreover, in the assay with Pfeiffer cells, the IC50 is 1 nM.
In the case of `Cc1nc(C2CN(CC3CCN(c4ccc5c(C6CCC(=O)NC6=O)nn(C)c5c4)CC3)C2)ccc1-c1cnc(NCc2c(F)ccc3c2CCO3)n2cnc(Cl)c12` (centres unmarked), on EED protein, the greatest degradation seen (Dmax) was 47%. The IC50 in the assay with Pfeiffer cells was 8 nM.
Compound `Cn1nc(C2CCC(=O)NC2=O)c2ccc(N3CCC(CN4CCC(n5cc(-c6cnc(NCc7c(F)ccc8c7CCO8)n7cnnc67)nn5)CC4)CC3)cc21` (centres unmarked) displayed a Dmax on EED protein of 58%. In addition, the IC50 in the assay on Pfeiffer cells is 0.06 nM.
As for `Cn1nc(C2CCC(=O)NC2=O)c2ccc(N3CCC(F)(CN4CCC(c5ccc(-c6cnc(NCc7c(F)ccc8c7CCO8)n7nnnc67)cc5)CC4)CC3)cc21` (centres unmarked), at EED protein, the Dmax was determined as 65%. In addition, the half-inhibitory concentration (IC50) in the assay with Pfeiffer cells was found to be 12 nM.
Turning to `Cn1nc(C2CCC(=O)NC2=O)c2ccc(N3CCC(CN4CCC(n5ncc(-c6cnc(NCc7c(F)ccc8c7CCO8)n7cnc(Cl)c67)n5)CC4)CC3)cc21` (centres unmarked), the greatest degradation seen (Dmax) on EED protein came to 66%. Also, in the assay on Pfeiffer cells, the half-inhibitory concentration (IC50) was 0.27 nM.
As to `Cn1nc(C2CCC(=O)NC2=O)c2ccc(N3CCC(CN4CCC(n5cnc(-c6cnc(NCc7c(F)ccc8c7CCO8)n7cnc(F)c67)n5)CC4)CC3)cc21` (centres unmarked), the greatest degradation seen (Dmax) at EED protein is reported as 54%. Besides, in the assay on Pfeiffer cells, the IC50 is 0.11 nM.
On to `O=C1CCC(Nc2ccc(N3CCC(CN4CCC(n5cc(-c6cnc(NCc7c(F)ccc8c7CCO8)n7cnc(Cl)c67)cn5)CC4)CC3)c(F)c2)C(=O)N1` (centres unmarked), for which the greatest degradation seen (Dmax) at EED protein is 49%. In addition, the half-maximal inhibitory concentration (IC50) with Pfeiffer cells was 22 nM.
For `Cn1c(=O)n(C2CCC(=O)NC2=O)c2ccc(N3CCC(CN4CCC(n5cc(-c6cnc(NCc7c(F)ccc8c7CCO8)n7cnc(Cl)c67)nn5)CC4)CC3)cc21` (centres unmarked) the same measures were 62% and 0.1 nM.
In the case of `Cc1nc(C2CCN(CC3CCN(c4ccc5c(c4)n(C)c(=O)n5C4CCC(=O)NC4=O)CC3)CC2)ccc1-c1cnc(NCc2c(F)ccc3c2CCO3)n(C)c1=O` (centres unmarked), the maximal degradation (Dmax) at EED protein is on record as 61%. Moreover, in the assay on Pfeiffer cells, the concentration for half-maximal inhibition (IC50) is 28 nM.
The compound `Cn1nc(C2CCC(=O)NC2=O)c2ccc(N3CCC(CN4CCC(c5cc(-c6cnc(NCc7c(F)ccc8c7CCO8)n7cnc(Cl)c67)on5)CC4)CC3)cc21` (centres unmarked) yielded a Dmax on EED protein of 64%. Also, in the assay with Pfeiffer cells, the IC50 was 0.12 nM.
On the same counts, the results for `Cn1c(=O)n(C2CCC(=O)NC2=O)c2ccc(N3CCC(CN4CCC(n5cnc(-c6cnc(NCc7c(F)ccc8c7CCO8)n7cnc(Cl)c67)n5)CC4)CC3)cc21` (centres unmarked) are 56% and 0.15 nM.
`Cn1nc(C2CCC(=O)NC2=O)c2ccc(N3CCC(CN4CCC(c5ccc(-c6cnc(NCc7c(F)ccc8c7CCO8)c7nncn67)cc5)CC4)CC3)cc21` (centres unmarked) came in with a Dmax at EED protein of 66%. In addition, the IC50 in the assay on Pfeiffer cells turned out to be 3 nM.
`Cn1nc(C2CCC(=O)NC2=O)c2ccc(N3CC4(CC(CN5CCC(n6cc(-c7cnc(NCc8c(F)ccc9c8CCO9)n8cnc(Cl)c78)nn6)CC5)C4)C3)cc21` (centres unmarked) registered a Dmax on EED protein of 56%. Further, the concentration for half-maximal inhibition (IC50) in the assay on Pfeiffer cells is 0.07 nM.
`Cn1nc(C2CCC(=O)NC2=O)c2ccc(N3CCC(CN4CCC(c5ccc(-c6cnc(NCc7c(F)ccc8c7CCO8)n7nnnc67)cc5)CC4)CC3)cc21` (centres unmarked): the greatest degradation seen (Dmax) on EED protein turned out to be 66%. Moreover, the IC50 in the assay with Pfeiffer cells was 1.7 nM.
`Cn1nc(C2CCC(=O)NC2=O)c2ccc(N3CCC(CN4CCC(n5cc(-c6cnc(NCc7c(F)ccc8c7CCO8)n7cnc(F)c67)nn5)CC4)CC3)cc21` (centres unmarked) returned a maximal degradation (Dmax) on EED protein of 41%.
In the case of `Cc1cc(CN2CCC(N3CCN(c4ccc(NC5CCC(=O)NC5=O)cc4F)CC3)C(F)(F)C2)ccc1-c1cnc(NCc2c(F)ccc3c2CCO3)n2cnnc12` (centres unmarked), the Dmax on EED protein stood at 23%. The 50% inhibitory concentration (IC50) with Pfeiffer cells is 84 nM.
For the compound `O=C1CCC(N2C(=O)c3ccc(N4CCC5(CCN(c6ccc(-c7cnc(NCc8c(F)ccc9c8CCO9)n8cnc(Cl)c78)cc6)CC5)CC4)cc3C2=O)C(=O)N1` (centres unmarked), the Dmax at EED protein is given as 40%.
`Cn1c(=O)n(C2CCC(=O)NC2=O)c2ccc(N3CCC(Oc4ccc(-c5cnc(NCc6c(F)ccc7c6CCO7)n6cnc(Cl)c56)cc4)CC3)cc21` (centres unmarked) gave a Dmax at EED protein of 21%.
As to `Cn1nc(C2CCC(=O)NC2=O)c2ccc(N3CCC(CN4CCC(N5CCC(c6cnc(NCc7c(F)ccc8c7CCO8)n7cnc(Cl)c67)CC5)CC4)CC3)cc21` (centres unmarked), at EED protein, the maximal degradation (Dmax) is on record as 38%.
Regarding `O=C1CCC(N2C(=O)c3ccc(N4CCC(c5ccc(-c6cnc(NCc7c(F)ccc8c7CCO8)n7cnc(Cl)c67)cc5)CC4)cc3C2=O)C(=O)N1` (centres unmarked), the greatest degradation seen (Dmax) on EED protein is 25%.

In general, Dmax refers to the largest share of the target that was removed. Lower therefore signals a partial loss of target. Broadly, the IC50 is the point on the concentration scale where inhibition reaches its midpoint.
